Measured values as given in patent publication US20080193514A1, “COMPOSTIONS AND METHODS FOR IONTOPHORESIS DELIVERY OF ACTIVE INGREDIENTS THROUGH HAIR FOLLICLES” (TRANSCU LTD., priority 2006, published 2008).

Test: Confirmation test of delivery of liposome in vitro, CLSM of NBD and Sulfo rhodamine B (Test Example 4)
Details: in vitro rat skin, 1.41 mA (0.45 mA/cm^2) for 1 hour

delivery into hair follicles (fluorescence detected by CLSM): not detected in hair follicles
Substance: Sulfo rhodamine B
